Measured values as given in patent US20150247179A1 (Les Laboratoires Servier, priority 2013, published 2015).

Tested on: CYP1A2
Experimental: Each active ingredient was incubated at 0.1 μM at 37° C. […] The reaction is initiated by addition of NADPH 1 mM. The incubation is monitored in kinetic form. At the incubation timepoints of 7 min, 17 min, 30 min and then 60 min, an incubation aliquot (100 μL) is sampled and the enzymatic reaction is stopped by adding to that aliquot a to volume of solvent (100 μL of methanol) which is placed in ice for 10 minutes.
At each incubation timepoint, the active ingredient is quantified by high-performance liquid chromatography (HPLC) coupled with mass spectrometry (MS).

Question: How did the “inhibition of intrinsic clearance = % involvement of CYP1A2 in the oxidative metabolism (kit of isolated microsomes)” value turn out when `CN[C@H]1CC[C@@H](c2ccc(Cl)c(Cl)c2)c2ccccc21` [sertraline] was run?
Answer: The value was “No significant inhibition”.
